Columns and labels:
[1] = system: influenza virus standard strain H1N1 (A/PR/8/34; H1N1); test: Inhibitory effect against influenza virus standard strain H1N1 in MDCK cells; format: cell-based; settings: 66 hours, read-out: H1N1 inhibition (EC50)
in vitro = settings: dog, MDCK cells (infected with influenza A/PR/8/34 H1N1)

Compound	EC50 [1]	CC50 at 66 h (in vitro)
COc1cc2cc3c(c(-c4cnc(N5CCOCC5)nc4)c2cc1OC)C(=O)OC3 [Example 51, 6,7-dimethoxy-9-(2-morpholinopyrimidin-5-yl)naphtho[2,3-c]furan-1(3H)-one]	107 nM	1760 nM
COc1cc2cc3c(c(-c4ccc(N5CCCCC5)nc4)c2cc1OC)C(=O)OC3 [Example 123, 6,7-dimethoxy-9-(6-(piperidin-1-yl)pyridin-3-yl)naphtho[2,3-c]furan-1(3H)-one]	198 nM	2030 nM
COc1cc2cc3c(c(-c4ccc(N5CCSCC5)nc4)c2cc1OC)C(=O)OC3 [Example 10, 6,7-dimethoxy-9-(6-thiomorpholinopyridin-3-yl)naphtho[2,3-c]furan-1(3H)-one]	170 nM	1230 nM
COc1cc2cc3c(c(-c4ccc5occc5c4)c2cc1OC)C(=O)OC3 [Example 52, 9-(benzofuran-5-yl)-6,7-dimethoxynaphtho[2,3-c]furan-1(3H)-one]	1880 nM	4470 nM
COc1cc2cc3c(c(-c4ccc(N(C)[C@H]5CCc6c(cccc6OC)C5)nc4)c2cc1OC)C(=O)OC3 [Example 164, (S)-6,7-dimethoxy-9-(6-((5-methoxy-1,2,3,4-tetrahydronaphthalen-2-yl)(methyl)amino)pyridin-3-yl)naphtho[2,3-c]furan-1(3H)-one]	17200 nM	> 100000 nM
COc1cc2cc3c(c(-c4ccc(N(C)Cc5ccc(C)o5)nc4)c2cc1OC)C(=O)OC3 [Example 179, 6,7-dimethoxy-9-(6-(methyl((5-methylfuran-2-yl)methyl)amino)pyridin-3-yl)naphtho[2,3-c]furan-1(3H)-one]	178 nM	1630 nM
COc1cc2cc3c(c(-c4ccc5c(c4)OC(F)(F)O5)c2cc1OC)C(=O)OC3 [Example 221, 9-(2,2-difluorobenzo[d][1,3]dioxol-5-yl)-6,7-dimethoxynaphtho[2,3-c]furan-1(3H)-one]	249 nM	752 nM
COc1cc2cc3c(c(-c4ccc5c(c4)N(C)CCC5)c2cc1OC)C(=O)OC3 [Example 170, 6,7-dimethoxy-9-(1-methyl-1,2,3,4-tetrahydroquinolin-7-yl)naphtho[2,3-c]furan-1(3H)-one]	1670 nM	6820 nM

Reference: patent US20240368104A1, “Novel Dialkoxynaphtho[2,3-C]Furan-1(3H)-One Derivatives and Pharmaceutical Composition For Preventing or Treating Respiratory Disease or SARS-COV-2 Infection Disease, Comprising Same” (priority 2021, published 2024)
